# Test results from US9884839B2, “Inhibitors of 17Beta-hydroxysteroid dehydrogenases type 1 and type 2” (ElexoPharm GmbH, priority 2014, dated 2018).
# Target: T1, human 17β-HSD1 (Homo sapiens, UniProt P14061)
# T1 construct: For the partial purification of 17β-HSD1, the cytosolic fraction was precipitated with ammonium sulfate; from tissue; host or cells: human placenta, cytosolic fraction, ammonium sulfate precipitate
# T1 sequence (P14061 1-328): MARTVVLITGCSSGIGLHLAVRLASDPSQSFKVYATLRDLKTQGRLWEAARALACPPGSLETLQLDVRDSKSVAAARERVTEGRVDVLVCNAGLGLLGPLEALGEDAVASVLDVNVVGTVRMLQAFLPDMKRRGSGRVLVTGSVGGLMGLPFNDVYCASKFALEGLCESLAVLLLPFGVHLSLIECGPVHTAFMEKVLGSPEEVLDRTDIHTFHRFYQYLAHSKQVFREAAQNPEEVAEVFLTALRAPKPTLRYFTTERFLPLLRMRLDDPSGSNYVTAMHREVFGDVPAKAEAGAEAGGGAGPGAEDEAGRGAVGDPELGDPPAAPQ
# Test: Inhibition of human 17β-HSD1 (conversion of [3H]-E1 to E2, HPLC radioflow detection)
# Format: biochemical
# Settings: human placental cytosolic enzyme, E1 500 nM, NADH; Tables 1, 4-11; read-out: IC50 [nM] h17β-HSD1
structure (smiles),measurement,value
"Nc1cccc(-c2ccc(C(=O)c3c(F)ccc(O)c3F)s2)c1 [Compound 1, [5-(3-Aminophenyl)thiophen-2-yl](2,6-difluoro-3-hydroxyphenyl)methanone]",IC50,10 nM
